Experimental data as given in patent US12365658B2, “Benzothia(di)azepine compounds and their use as bile acid modulators” (Albireo AB, priority 2021, dated 2025).

The chains behind the UniProt entries cited, without tags or fusion partners.
UniProt Q12908, whole entry: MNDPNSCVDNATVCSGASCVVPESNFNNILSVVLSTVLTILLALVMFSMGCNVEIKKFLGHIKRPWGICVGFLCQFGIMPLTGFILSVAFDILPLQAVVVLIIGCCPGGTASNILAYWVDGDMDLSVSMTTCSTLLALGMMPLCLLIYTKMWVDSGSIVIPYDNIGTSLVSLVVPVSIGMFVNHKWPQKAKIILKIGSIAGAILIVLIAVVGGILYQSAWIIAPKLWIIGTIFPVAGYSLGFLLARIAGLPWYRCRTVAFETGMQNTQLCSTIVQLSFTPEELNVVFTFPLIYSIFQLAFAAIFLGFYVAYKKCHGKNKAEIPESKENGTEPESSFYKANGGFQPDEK
UniProt Q14973, whole entry: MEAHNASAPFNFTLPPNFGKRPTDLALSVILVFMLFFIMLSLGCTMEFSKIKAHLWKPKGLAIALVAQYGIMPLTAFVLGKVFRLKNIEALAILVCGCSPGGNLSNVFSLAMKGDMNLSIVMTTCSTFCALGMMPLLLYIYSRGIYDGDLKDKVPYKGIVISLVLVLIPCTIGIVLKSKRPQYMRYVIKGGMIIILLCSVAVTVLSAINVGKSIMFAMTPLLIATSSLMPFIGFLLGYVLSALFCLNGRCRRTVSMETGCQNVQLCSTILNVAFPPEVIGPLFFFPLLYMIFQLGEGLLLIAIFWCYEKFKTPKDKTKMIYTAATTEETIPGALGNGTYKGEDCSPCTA

Legend:
Human IBAT = Human IBAT (Homo sapiens, UniProt Q12908); assay: IBAT (h/m) assay, human IBAT-overexpressing cells, 3H-taurocholic acid uptake; conditions: read-out: hIBAT IC50, 0.25 μM 3H-taurocholic acid and 5 μM cold taurocholic acid, 20 minutes, highest test concentration 10 μM
Human LBAT = Human LBAT (Homo sapiens, UniProt Q14973); assay: LBAT (h/m) assay, human LBAT-overexpressing cells, 3H-taurocholic acid uptake; conditions: read-out: hLBAT IC50, 0.3 μM 3H-taurocholic acid and 7.5 μM cold taurocholic acid, 20 minutes
Caco-2 cells = assay: Bidirectional permeability assay (Caco-2 cells); conditions: 10 μM in FaSSIF buffer, 120 minutes; for Permeability (Caco-2) Papp A2B: absorptive direction (A2B); for Permeability (Caco-2) Papp B2A: secretory direction (B2A)
Bioavailability studies = conditions: single intravenous dose 1 mg/kg and single oral dose 10 mg/kg; species per compound not given

SMILES	IC50 (Human IBAT)	IC50 (Human LBAT)	Permeability (Caco-2) Papp A2B (Caco-2 cells)	Permeability (Caco-2) Papp B2A (Caco-2 cells)	Bioavailability (Bioavailability studies)
CCCCC1CN(c2ccc(F)cc2)c2cc(SC)c(OCC3(C(=O)O)CC3)cc2S(=O)(=O)N1C (single isomer, unassigned) [12, enantiomer 1]	3010 nM	9.4 nM	–	–	–
CCCCC1CN(c2ccccc2)c2cc(SC)c(OCC(F)(F)C(=O)O)cc2S(=O)(=O)N1C (single isomer, unassigned)	203 nM	0.6 nM	–	–	–
CCCCC1CN(c2ccc(F)cc2)c2cc(SC)c(OCC3(C(=O)O)CC3)cc2S(=O)(=O)N1C (single isomer, unassigned) [12, enantiomer 2]	96 nM	8.5 nM	12.9 ×10⁻⁶ cm/s	9.1 ×10⁻⁶ cm/s	33%

Now from value to compound:

IC50 (Human IBAT)	IC50 (Human LBAT)	Permeability (Caco-2) Papp A2B (Caco-2 cells)	Permeability (Caco-2) Papp B2A (Caco-2 cells)	Bioavailability (Bioavailability studies)	SMILES
234 nM	2.8 nM	7.7 ×10⁻⁶ cm/s	10.6 ×10⁻⁶ cm/s	11%	CCCCC1CN(c2ccc(F)cc2)c2cc(SC)c(OCC3(C(=O)O)CC3)cc2S(=O)(=O)N1 (single isomer, unassigned) [17, enantiomer 1]
1250 nM	131 nM	–	–	–	CCCCC1CN(c2ccc(F)cc2)c2cc(SC)c(OCC3(C(=O)O)CC3)cc2S(=O)(=O)N1 (single isomer, unassigned) [17, enantiomer 2]
274 nM	1.3 nM	7.2 ×10⁻⁶ cm/s	7 ×10⁻⁶ cm/s	–	CCCCC1CN(c2ccc(F)cc2)c2cc(SCC)c(OCC3(C(=O)O)CC3)cc2S(=O)(=O)N1 (single isomer, unassigned)
1950 nM	918 nM	–	–	–	CCCCC1CN(c2ccc(F)cc2)c2cc(SC)c(OCC(C)(C)C(=O)O)cc2S(=O)(=O)N1C (single isomer, unassigned) [14, enantiomer 2]
